The list shows a part of the results, in another mix than the full data. Some of these compounds have results that are not shown, active ones among them. Calls of active or inactive are those of the source.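 The calls were made as follows: active = signal rise over 3 SD above mean of control wells given weak agonist, in both repeats and first screen; inactive = the rest.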
tested on: TRPC4 (mouse), co-expressed with 5HT1a in HEK293; experiment: calcium flux potentiators in TRPC4/5HT1a cells, confirmation, counter-screen for TRPC4 potentiator project, cell-based, second counter screen, HEK293 TRPC4/5HT1a, Fluo-4 (AID 434979); conditions: Fluo-4 calcium flux, at 10 µM, serotonin added at its EC20 dose

**Q.** With `CN(C)c1ccc(C(=O)NCC2(N(C)C)CCCCC2)cc1` as the compound, how does the outcome read?
**A.** inactive

— PubChem BioAssay AID434979 (Johns Hopkins Ion Channel Center, 2010)
